# Measured values: PubChem BioAssay AID1457 (National Center for Advancing Translational Sciences (NCATS), 2008)
# Values joined by “and” are separate entries in the source; they are usually repeats but may differ in a detail not shown here. Identical values can stand only once. Only a part is listed here, and it is no random draw. Active and inactive are the calls of the source. Calls come from the whole dose curve; as a rule, active = well fitted inhibition curve with a large enough effect; inconclusive = small, poorly fitted or top-dose-only effect; inactive = no such curve, though single readings can be large or run the other way.
# Assay: qHTS Assay for Identifying the Cell-Membrane Permeable IMPase Inhibitors: Potentiation with Lithium;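 note: IP1 builds up when IMPase is blocked and the TR-FRET signal falls; plate controls were basal vehicle for no effect and high inhibitor control for full effect; nearly all actives have a fitted effect of over 50% in size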
# Details: CHO-M1 cells, IP1 TR-FRET (IP-One), carbachol + lithium; at 59.4 µM (top of the series) unless noted
row,Structure (SMILES),"activity, negative = IMPase inhibition"
1,O=P1(Nc2ccccn2)COc2ccccc2OC1,inactive: 17.1% [at 38.3 µM]
2,CN(CCCl)Cc1cc(Cl)c(NC2=NCCN2)c(Cl)c1,inactive: 22.8% and inactive: 14.6%
3,CC(C)/C=N\N=C(\N)N[N+](=O)[O-],inactive: -3.64%
4,CC1CCC(C(C)C)C(OP(=O)(Nc2ccccn2)c2ccccc2)C1 (stereo not given),inactive: 17.6%
5,Cc1nn(-c2ccccc2)c2c1P(=O)(N1CCOCC1)N(C)C(c1ccccc1)=N2 (stereo not given),inactive: -4.09% [at 38.3 µM]
6,CN(C)C1(CNC(=O)c2ccc(S(C)(=O)=O)cc2)CCCCC1,inactive: -4.32%
7,O=P1(Nc2ncccn2)COc2ccccc2OC1,inactive: 21.2% [at 38.3 µM]
8,Cc1ccc(OCC(=O)OC2CN3CCC2CC3)cc1 (stereo not given),inactive: 25.1% [at 38.3 µM]
9,O=P1(Nc2ccc(Br)cn2)COc2ccccc2OC1,inactive: 5.36% [at 38.3 µM]
10,O=P(Nc1nccs1)(Oc1ccccc1)Oc1ccccc1,inactive: -3.05%
11,O=P(Nc1nccs1)(c1ccccc1)c1nc2ccccc2s1 (stereo not given),inactive: 39% [at 38.3 µM]
12,CCOP1(=S)c2c(C)nn(CCC#N)c2N=C(c2ccccc2F)N1C (stereo not given),inactive: 19.8% [at 38.3 µM]
13,O=[As](O)(O)c1ccc([As](=O)(O)O)cc1,inactive: -1.79%
14,O=[N+]([O-])CC(O)c1ccc([N+](=O)[O-])cc1 (stereo not given),inactive: 48.5%
15,NC(=O)Nc1ccc([As](=O)(O)O)cc1,inactive: 7.27% and inactive: -7.98%
16,CN(C(=O)Cc1ccccc1)[C@@H]1CC[C@]2(CCCO2)C[C@H]1N1CCCC1,inactive: 10.8%
17,CCOP1(=S)c2c(C)nn(CCC#N)c2N=C(c2ccc(F)cc2)N1C (stereo not given),inactive: 3.28% [at 38.3 µM]
18,O=[N+]([O-])c1ccc2c(c1)nnn2O,inactive: 14.7% [at 38.3 µM]
19,CN(C(=O)Cc1ccc(Cl)c(Cl)c1)[C@@H]1CC[C@]2(CCCO2)C[C@H]1N1CCCC1,inactive: -7.03% and inactive: 11.2%
20,COc1cc(C(=O)NCC2(N3CCOCC3)CCCCC2)cc(Cl)c1OC(C)C,inactive: 8.66%
21,Cc1cccc(OCC(=O)OC2CN3CCC2CC3)c1 (stereo not given),inactive: 5.1% [at 38.3 µM]
22,NS(=O)(=O)Cc1ccc([As](=O)(O)O)cc1,inactive: 9.42%
23,Cc1ccc(NCCc2c([N+](=O)[O-])cc([N+](=O)[O-])cc2[N+](=O)[O-])cc1,inactive: 9.4%
24,O=C(CC(=O)c1ccccc1)O[C@H]1CN2CCC1CC2,inactive: 22%
25,CCOP(=O)(Nc1cccc2ccccc12)OCC,inactive: -8.41%

row,Structure (SMILES),"activity, negative = IMPase inhibition"
1,COc1cc(C2NCCC3(OCCO3)C2(C)C)cc(OC)c1OC (stereo not given),inactive: 3.3%
2,Cc1c2c(nc3ccccc13)SC(C(Cl)Cl)C2 (stereo not given),inactive: 9.91%
3,Cc1cc(=O)[nH]c(N[N+](=O)[O-])n1,inactive: -0.706%
4,O=C(OC1CN2CCC1CC2)C12CC3CC(CC(C3)C1)C2 (stereo not given),inactive: 29.7% [at 38.3 µM]
5,COc1ccc2nc(NP(=O)(c3ccccc3)c3ccccc3)sc2c1,inactive: 8.38%
6,NC(=O)Nc1cc([As](=O)(O)O)cc(I)c1O,inactive: 7.98%
7,COc1ccc(N/C(=N/P(=O)(N2CCOCC2)N2CCOCC2)N2CCOCC2)cc1,inactive: -25.1%
8,Cc1ccc2nc3c(c(C)c2c1)CC(C(Cl)Cl)S3 (stereo not given),inactive: -0.48%
9,ClCCSc1nnc(-c2cccnc2)o1,inactive: 3.95%
10,O=[As]c1ccc(S(=O)(=O)NCCO)cc1 (stereo not given),inactive: 8.17%
11,[N-]=[N+]=NCC(N)=O,inactive: -2.49%
12,O=[N+]([O-])c1cc([N+](=O)[O-])c(-c2ccn[nH]2)s1,inactive: -3.42%
13,CC(C)NC(=O)NP(=O)(Oc1ccccc1)Oc1ccccc1,inactive: 1.28%
14,CCN(CC)C(=S)SC(NC=O)C(Cl)(Cl)Cl (stereo not given),inactive: 1.9% [at 38.3 µM]
15,Cc1cc(SC(NC(=O)c2ccccc2)C(Cl)(Cl)Cl)nc(C(C)C)n1 (stereo not given),inactive: 10.7%
16,CN(N=O)C(=N)N[N+](=O)[O-],inactive: -0.17%
17,Cc1cc(SC(NC=O)C(Cl)(Cl)Cl)ncn1 (stereo not given),inactive: -4.09%
18,O=P(Nc1ccccn1)(c1cccc2ccccc12)c1cccc2ccccc12,inactive: 21.3%
19,COP1(=S)c2c(C)nn(CCC#N)c2N=C(c2ccc(F)cc2)N1C (stereo not given),inactive: 15.3% [at 38.3 µM]
20,O=C(COc1ccccc1)OC1CN2CCC1CC2 (stereo not given),inactive: 11.6%
21,O=C(O)[C@@H](O)c1ccc([As](=O)(O)O)cc1,inactive: 0.825%
22,CCC(C)N(CC(C)C)C(=S)SC(NC(C)=O)C(Cl)(Cl)Cl (stereo not given),inactive: 13.1%
23,COc1ccc(C2=NCC(CBr)S2)cc1 (stereo not given),inactive: 16.5%
24,O=[N+]([O-])c1cc([N+](=O)[O-])c(CCNc2ccccc2)c([N+](=O)[O-])c1,inactive: -1.7%
25,Cc1ccc(NP(=O)(Oc2ccccc2)Oc2ccccc2)nc1,inactive: 10.7%

row,Structure (SMILES),"activity, negative = IMPase inhibition"
1,CC(=O)N1C2C3N(C(C)=O)C1C1N(C(C)=O)C(C(N1C(C)=O)N3C(C)=O)N2C(C)=O,inactive: -3.11% [at 38.3 µM]
2,O=[N+]([O-])c1cccc2n[nH]nc12,inactive: 15.8% [at 38.3 µM]
3,CCN(/C(=N/P(=O)(N1CCOCC1)N1CCOCC1)N1CCOCC1)c1ccc(OC)cc1,inactive: 0.887%
4,CC(=O)C1=CCCC2CCC1N2 (stereo not given),inactive: 9.41% and inactive: -4.52%
5,CC1CCN(C(=O)Oc2c(Cl)cc(Cl)c3cccnc23)CC1,inactive: -14.8% [at 38.3 µM]
6,O=C(CO)Nc1ccc([As](=O)(O)O)cc1,inactive: 1.33%
7,CN(C)C(=O)OCCc1n(C)cc[n+]1C,inactive: -0.189%
8,CC(C)=N/N=C(\N)N[N+](=O)[O-],inactive: -5.47%
9,O=[N+]([O-])c1ncn(CCn2ncnc2[N+](=O)[O-])n1,inactive: 2.94%
10,Cc1cc(SC(NC(=O)c2ccc(F)cc2)C(Cl)(Cl)Cl)ncn1 (stereo not given),inactive: -7.71%
11,CCOP(=O)(Nc1ccccc1)OCC,inactive: -0.118% [at 38.3 µM]
12,[N-]=[N+]=NCC(O)CN=[N+]=[N-] (stereo not given),inactive: 0.0081%
13,C(Cc1nn[nH]n1)c1nn[nH]n1,inactive: -5.91%
14,CCN(N=Nc1nonc1N)c1nonc1N,inactive: 7.04%
15,Cc1ccc(N/C(=N/P(=O)(N2CCOCC2)N2CCOCC2)N2CCOCC2)cc1,inactive: 1.36%
16,NC(=O)c1cc([N+](=O)[O-])cc([N+](=O)[O-])c1N,inactive: 6.21%
17,CN1CCCC(OC(=O)C(c2ccccc2)c2ccccc2)C1 (stereo not given),inactive: 32.3%
18,Clc1ccc(Cl)c(NC2=NCC(CBr)S2)c1 (stereo not given),inactive: 17.9%
19,COc1ccccc1OP(=O)(Nc1ccc(C)cn1)Oc1ccccc1OC,inactive: 12.7%
20,O=[N+]([O-])c1ccc(C[As](=O)(O)O)cc1,inactive: -7.75%
21,O=C(NC(Sc1ccncn1)C(Cl)(Cl)Cl)c1ccccc1 (stereo not given),inactive: -1.76%
22,Cc1c2non([O-])c-2c(C)[n+](=O)[n+]1[O-],inactive: 18.4% [at 38.3 µM]
23,Oc1ccccc1CNc1ccccn1,inactive: 26.1% [at 38.3 µM]
24,CC(C)CC(=O)NC(Sc1ccc(Cl)cc1)C(Cl)(Cl)Cl (stereo not given),inactive: 10.7% [at 38.3 µM]
25,NCC[C@@H](N)CSP(=O)(O)O,inactive: 1.56%

row,Structure (SMILES),"activity, negative = IMPase inhibition"
1,CCOc1ccc(C2=NCC(CBr)S2)cc1 (stereo not given),inactive: 25.3%
2,O=P1(Nc2nc3ccc(Cl)cc3s2)COc2ccccc2O1 (stereo not given),inactive: 5.49% [at 38.3 µM]
3,CC(C)(C)C(=O)NC(Sc1ccccc1)C(Cl)(Cl)Cl (stereo not given),inactive: 6.93%
4,CC(=O)Nc1ccc(Oc2c([N+](=O)[O-])cc([N+](=O)[O-])cc2[N+](=O)[O-])cc1,inactive: -3.36%
5,CCOC(=O)NC(Sc1ccccc1)C(Cl)(Cl)Cl (stereo not given),inactive: -0.426% [at 38.3 µM]
6,c1ccc(-c2nn[nH]n2)c(-c2nn[nH]n2)c1,inactive: -2.98%
7,O=C(NC1CCS(=O)(=O)C1)NP(=S)(Oc1ccccc1)Oc1ccccc1 (stereo not given),inactive: 12.4%
8,CCNC(=S)/N=C(\N)N[N+](=O)[O-],inactive: -2.02%
9,CCC(=O)N1C2C3N(C(=O)CC)C1C1N(C(=O)CC)C(C(N1C(=O)CC)N3C(=O)CC)N2C(=O)CC,inactive: 1.22% [at 38.3 µM]
10,CC(=O)NC(SC(=S)N(CC(C)C)CC(C)C)C(Cl)(Cl)Cl (stereo not given),inactive: 9.63%
11,Cc1ccc(OP(=O)(Nc2ccccn2)Oc2ccc(C)cc2)cc1,inactive: 22%
12,COC(=O)c1cc2c(s1)N=C(c1ccccc1)N(C)P2(=O)N1CCOCC1 (stereo not given),inactive: -10.7% [at 38.3 µM]
13,O=c1c2cc([N+](=O)[O-])ccc2[nH]c2c([N+](=O)[O-])cc([N+](=O)[O-])cc12,inactive: 25.6%
14,O=P(Nc1ccccn1)(c1ccc(Br)cc1)c1ccc(Br)cc1,inactive: 0.485%
15,CN(C(=O)Cc1ccccc1)[C@H]1CC[C@@]2(CCCO2)C[C@@H]1N1CCCC1,inactive: 1.24%
16,Cc1cc([N+](=O)[O-])cc([N+](=O)[O-])c1O,inactive: 12.1%
17,[N-]=[N+]=Nc1ccc([As](=O)(O)O)cc1,inactive: -2.03%
18,CC(=O)NC(SC(=S)N(C)C)C(Cl)(Cl)Cl (stereo not given),inactive: -3.75%
19,O=C(OC1CN2CCC1CC2)c1cccc(Cl)c1 (stereo not given),inactive: 51.3% [at 38.3 µM]
20,C(Cc1nn[nH]n1)Cc1nn[nH]n1,inactive: -3.01%
21,O=P(Nc1nccs1)(c1ccccc1)c1ccccc1,inactive: 24.8% [at 38.3 µM]
22,CC(C)C(=O)NC(Sc1ccccc1)C(Cl)(Cl)Cl (stereo not given),inactive: 9.85%
23,c1nnnn1CCn1cnnn1,inactive: 18.7% [at 38.3 µM]
24,CN1CCC[C@H](OC(=O)C(c2ccccc2)c2ccccc2)C1,inactive: 22.1%
25,C[C@@H](O)COc1ccc([As](=O)(O)O)cc1N,inactive: 12.7%
